AlphaSeq binding of Ab-95 light chain variants to a spike HR2 peptide

Data: MIT Lincoln Laboratory AlphaSeq set, Engelhart et al. 2022, doi:10.1038/s41597-022-01779-4, as distributed in FLAb.

All variants were tested on one target, the spike HR2 peptide PDVDLGDISGINAS (SARS-CoV-2).

The variants keep the heavy chain, the linker and the frameworks of Ab-95 (scFv order VH, a (GGGGS)3 linker, VL).
VH: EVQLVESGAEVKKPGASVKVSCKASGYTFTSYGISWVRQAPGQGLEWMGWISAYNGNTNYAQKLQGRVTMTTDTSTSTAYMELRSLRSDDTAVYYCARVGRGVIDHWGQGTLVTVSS
VL: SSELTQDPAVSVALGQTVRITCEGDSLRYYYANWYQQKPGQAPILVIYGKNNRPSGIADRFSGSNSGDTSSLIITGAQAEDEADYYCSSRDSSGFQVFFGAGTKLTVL

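In library AAYL52, one, two or three CDR residues were substituted; doubles and triples were drawn at random. AlphaSeq pools MATa yeast showing the antibodies with MATalpha yeast showing the peptide. Binding brings cells together so that they mate, and sequencing counts the barcode pairs among the diploids. Each replicate has its own calibration line, from reference interactions of the BCL2 family. Mating was done three times.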

Substitutions are numbered in sequence along the VL above, starting at 1 (not Kabat). The read-out is the apparent dissociation constant on a log10 scale (nM): the lower, the stronger. Replicates are averaged; those with no signal do not enter the mean. An entry "ND" has no value in the source: the pair was not observed among the diploids in that replicate. This suggests poor binding but is not conclusive. The list is sorted by this average, lowest first, undetected variants last. Background: pairings of library AAYL52 with three empty control strains gave a value in 28% of cases (median 3.91, 5th percentile 2.90). Values in that range, when seen in few replicates, are hard to tell from nonspecific mating. Also given: how often the same scFv was detected with the empty control strains, with their mean in brackets.

changes,log10 Kd (nM) by replicate,mean log10 Kd (nM),empty controls
G24L/D25H/S55T,1.39 / 1.45 / 1.26,1.37,7/9 (4.00)
Y29R/N52D,1.69 / 1.79 / 0.95,1.48,3/9 (3.91)
Y30T/Y31W/N51D,1.82 / 1.67 / 1.20,1.56,4/9 (3.81)
E23R/S26N/S93C,2.19 / 1.79 / 1.98,1.98,2/9 (3.63)
Y29L/A32S/S88M,2.32 / 2.00 / 1.96,2.09,3/9 (4.55)
Y29P/K50T/D91R,2.61 / ND / 2.11,2.36,1/9 (3.88)
N52Q/D91H/S92F,2.56 / 2.67 / 2.27,2.50,2/9 (3.85)
E23I/G24H/S92R,2.79 / 2.84 / 2.52,2.72,6/9 (3.59)
G49N/F95T,2.93 / 2.55 / 2.77,2.75,6/9 (4.38)
S55P/S93Q,2.84 / 2.51 / 3.10,2.82,3/9 (3.82)
D25A/Y29K/A32G,2.85 / 3.17 / 2.65,2.89,4/9 (4.37)
R53C/P54F/Q96H,ND / ND / 2.96,2.96,6/9 (3.58)
N52T/S89D/V97T,3.84 / 3.40 / 1.71,2.98,1/9 (3.77)
Y29M/F98V,3.39 / 2.89 / 2.78,3.02,2/9 (4.17)
L27H/N51S/S92H,3.18 / 3.13 / ND,3.15,1/9 (4.19)
L27V/R90K,3.30 / 3.02 / 3.16,3.16,1/9 (4.88)
E23D/N33V/R53H,3.01 / 3.38 / ND,3.19,1/9 (3.71)
Y31W/G49H/S55F,ND / ND / 3.21,3.21,4/9 (3.74)
Y31H/R53Q/R90I,2.79 / 3.69 / ND,3.24,1/9 (3.94)
K50E/N52P/S55D,3.62 / 2.98 / 3.17,3.26,3/9 (4.02)
Y30Q/G49C,ND / 3.19 / 3.35,3.27,1/9 (2.99)
D25P/R53F/F95N,3.27 / ND / ND,3.27,4/9 (4.20)
Y30C/N33H/N52T,3.28 / 3.01 / 3.52,3.27,3/9 (3.76)
L27N/V97W,3.02 / 3.29 / 3.53,3.28,4/9 (4.45)
Y29S/N51W/Q96A,3.61 / 3.48 / 3.16,3.42,4/9 (4.82)

Second part, the sequence after the result:

log10 Kd (nM) by replicate,mean log10 Kd (nM),empty controls,changes
3.36 / 2.98 / 4.18,3.50,7/9 (4.00),D25H/G94A
ND / ND / 3.71,3.71,2/9 (4.14),L27R/Y31F/F98Y
3.80 / ND / ND,3.80,3/9 (4.12),A32M/P54N/V97R
3.99 / ND / ND,3.99,2/9 (3.45),Y29W/N51L/S93F
ND / ND / 4.03,4.03,0/9,L27N/S89L/G94R
4.14 / ND / ND,4.14,2/9 (3.49),N52A/R53P/Q96M
3.78 / 4.58 / ND,4.18,3/9 (4.21),R28W/G49W/V97G
3.68 / 4.50 / 4.40,4.19,5/9 (3.81),N51P/P54I
3.05 / 5.47 / ND,4.26,5/9 (4.07),R53N/Q96R/F98C
ND / 4.75 / 3.79,4.27,3/9 (3.46),G24Q/N51Y/S55T
4.30 / ND / ND,4.30,1/9 (3.61),S26E/N52W/S93A
3.70 / 5.44 / ND,4.57,5/9 (4.01),N33V/N52V/F95P
4.58 / ND / ND,4.58,1/9 (3.72),L27F/G49M/R90N
4.38 / 5.52 / 4.08,4.66,3/9 (4.15),K50W/N52M/S89I
5.39 / ND / ND,5.39,2/9 (3.73),L27K/F95P
ND / 5.53 / ND,5.53,4/9 (3.84),S26A/R53N/R90M
ND / ND / ND,ND,3/9 (4.00),N33K/N51P/S88R
ND / ND / ND,ND,0/9,N33E/F98M
ND / ND / ND,ND,0/9,A32R/F95Q
ND / ND / ND,ND,0/9,E23R/S55I/S89P
ND / ND / ND,ND,1/9 (3.48),G24M/A32G/R53W
ND / ND / ND,ND,3/9 (3.76),E23G/S88P/V97P
ND / ND / ND,ND,1/9 (4.67),L27M/N51E/S93W
ND / ND / ND,ND,2/9 (3.96),S26V/L27R/Y29W
ND / ND / ND,ND,1/9 (4.03),L27C/Y30L/S92M
ND / ND / ND,ND,3/9 (3.46),N33Y/S89D/S92W

8 of these entries, quoted again:

| changes | log10 Kd (nM) by replicate | mean log10 Kd (nM) | empty controls |
|---|---|---|---|
| N33Y/S89D/S92W | ND / ND / ND | ND | 3/9 (3.46) |
| N33K/N51P/S88R | ND / ND / ND | ND | 3/9 (4.00) |
| A32R/F95Q | ND / ND / ND | ND | 0/9 |
| N52T/S89D/V97T | 3.84 / 3.40 / 1.71 | 2.98 | 1/9 (3.77) |
| D25H/G94A | 3.36 / 2.98 / 4.18 | 3.50 | 7/9 (4.00) |
| G24M/A32G/R53W | ND / ND / ND | ND | 1/9 (3.48) |
| N51P/P54I | 3.68 / 4.50 / 4.40 | 4.19 | 5/9 (3.81) |
| Y30T/Y31W/N51D | 1.82 / 1.67 / 1.20 | 1.56 | 4/9 (3.81) |